Only some compounds are listed: those with a hit (about 2.2% of all), similar ones and a draw of the others.
B2AR arrestin: beta2AR (human) beta-arrestin recruitment activity | AID 492947 | beta-arrestin recruitment to beta2AR, cell-based reporter | P07550 | hit rate 0.02% among 330,000 | Potency, µM (titrated, usually from 46.1 µM), usual class: activators; note: nearly all actives have a fitted effect of over 65% in size
Nrf2 activator: activates Nrf2 signaling | AREc32 ARE-luciferase reporter (MCF7-derived line), luminescence, 24 h | Potency, µM (series often up to 46.1 µM), hits mostly activators | hit rate 0.31% among 410,000 | AID 624171; note: nearly all actives have a fitted effect of over 65% in size
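Cells of the AREc32 ARE-luciferase line are plated in OPTI-MEM containing 5% FBS and left overnight at 37 deg C. Compounds are pinned in, incubation continues 24 hr, and firefly luciferase signal is then measured.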
Nrf2 block: inhibitors of Nrf2 signaling. A549 ARE-Fluc reporter, luciferase luminescence, 18-24 h. Potency, µM (series often up to 46 µM), hits mostly inhibitors. hit rate 2.1% among 360,000; note: nearly all actives have a fitted effect of over 60% in size
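A549 ARE_Fluc cells (5000/well, 5% FBS OPTI-MEM) pre-incubated 2 h, then treated with compounds 18-24 h at 37C/5% CO2 in concentration-response. CellTiter-Fluor viability read first; BugLite luciferase luminescence after 15 min at room temperature gives Nrf2 activity.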
miR-21 reporter: raises the signal of a miR-21 reporter; Potency, µM (doses to about 38.3 µM); HeLa miR-21 FLuc reporter, luciferase, 48 h; AID 2288; 340,000 tested, under 10 active; active = well fitted rising curve with a large enough effect; inconclusive = small, poorly fitted or top-dose-only effect; inactive = no such curve, though single readings can be large or run the other way;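 further: miR-21 action dims this reporter so a rising signal means less miR-21 action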
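Compounds were titrated across several concentrations (up to approximately 40 uM) and incubated 48 hours with HeLa miR-21-FLuc reporter cells (miR-21 target sequence downstream of FLuc, endogenous miR-21). Readout was firefly luciferase luminescence after lytic detection reagent.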
A549 viability: A549 cytotoxicity, counter-screen for Nrf2 inhibitors. Potency, µM (series often up to 46 µM), most hits filed as inhibitors. hit rate 0.16% among 390,000. AID 504648. A549 ARE-Fluc cells, CellTiter-Fluor viability, 18-24 h
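A549 ARE_Fluc cells in 5% FBS OPTI-MEM were exposed to compounds in concentration-response for 18-24 h at 37 deg C. Viability was read by CellTiter-Fluor fluorescence (Ex 405/Em 525) after 30 min, before the luciferase read.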
Hits are given with their value; – = inactive; ? = inconclusive; · = no result; [ ] = dose if it differs, or a comment. Unless noted, calls come from the whole dose curve; as a rule, active = well fitted curve in the direction sought with a large enough effect; inconclusive = small, poorly fitted or top-dose-only effect, or another doubt; inactive = no such curve, though single readings can be large; an effect the other way counts as inactive or inconclusive.

SMILES	B2AR arrestin	Nrf2 activator	Nrf2 block	miR-21 reporter	A549 viability
Cc1cc(Sc2nnc(/N=C/N(C)C)s2)c2ccccc2n1	–	–	7.3µM	?	–
Cc1cc(Sc2nnc(N)s2)c2ccccc2n1	–	–	?	?	–
Cc1ccc(NC(=O)Cc2cc(C(=O)O)c3ccccc3n2)c(C)c1	–	–	5.8µM	–	?
Cc1ccccc1Cn1cnc2nc3c(cc2c1=O)CC(C)CC3 (stereo unspecified)	·	–	·	–	–
O=C(OCC#CCSc1nnc(-c2cc3ccccc3cc2O)o1)c1ccc(F)cc1	·	·	–	·	–
COc1ccc(-c2nn3c(-c4cc(-c5ccccc5)n[nH]4)nnc3s2)cc1OC	·	·	–	·	–
COc1ccc2nc(C)cc(SCC(=O)N/N=C/c3ccc(O)c(O)c3)c2c1	–	–	–	–	–
COc1ccc2nc(C)cc(SCC(=O)N/N=C/c3cccc4ccccc34)c2c1	–	–	16µM	–	23µM
Cn1c(SCc2ccccc2)nc2ccsc2c1=O	–	13µM	16µM	–	–
CCn1ccc2cc(S(=O)(=O)N3CCC(C(=O)NCCOC)CC3)ccc21	·	–	·	–	–
Cc1cccc(C)c1NC(=O)Cn1c(=O)n(Cc2ccc(C(=O)NCc3ccco3)cc2)c(=O)c2sccc21	·	–	18µM	?	–
Cc1cc(C)c(NC(=O)Cn2c(=O)n(Cc3ccc(C(=O)NCc4ccco4)cc3)c(=O)c3sccc32)c(C)c1	·	–	?	–	–
Cc1cc2c(s1)c1cnn(Cc3ccc(Br)cc3F)c(=O)c1n2C	·	·	–	·	–
Cc1ccccc1-c1nc2c3ccccc3nc(=S)n2[nH]1	10µM	–	–	–	–
Cc1ccc(C(=O)c2ccc(O)cc2)cc1C	–	–	–	–	–
Cc1ccc(C(=O)c2cccc(N)c2)cc1C	–	–	5.8µM	–	–
O=c1[nH]c(SCc2nc3c(cnn3-c3ccccc3)c(=O)[nH]2)nc2ccccc12	–	–	·	–	–
O=c1[nH]c(CSc2nc3ccccc3[nH]2)nc2c1cnn2-c1ccccc1	–	–	15µM	–	–
CCOC(=O)c1c(C)[nH]c(C)c1S(=O)(=O)N(C)CC(=O)N1CCN(c2cccc(Cl)c2)CC1	·	–	·	–	–
Cc1ccc(C(=O)c2cnc3cc4c(cc3c2S(=O)(=O)c2ccccc2)OCCO4)cc1	–	13µM	?	–	–
CC(C)(C)OC(=O)n1c2ccsc2c2cnn(Cc3ccccc3F)c(=O)c21	·	·	–	·	–
O=C(Cc1cccs1)Nc1ccc(-c2nnc(-c3ccccc3)o2)cc1	·	–	–	·	–
Cc1cccc(-c2nnc(-c3cccc(NC(=O)Cc4cccs4)c3)o2)c1	–	–	21µM	–	?
CC(=O)N1c2ccc(Cl)cc2C2OCCC2C1c1ccco1 (stereo unspecified)	–	–	–	–	–
Clc1ccc2c(c1)C1OCCC1C(c1ccco1)N2 (stereo unspecified)	–	5.6µM	–	–	–
SMILES	B2AR arrestin	Nrf2 activator	Nrf2 block	miR-21 reporter	A549 viability
COc1ccc(C2Nc3ccccc3C(=O)N2Cc2ccccc2)cc1COc1ccccc1F (stereo unspecified)	·	·	–	·	–
COc1ccc(/C=C/C(=O)c2ccc(O)cc2)cc1CN1CCOCC1	–	?	–	–	–
O=C(/C=C/c1cccc(O)c1)c1ccc(N2CCOCC2)cc1	–	14µM	–	–	–
Cc1ccc(C)c(Nc2nn3c(=O)c4ccc(C(=O)NCc5cccs5)cc4nc3s2)c1	·	–	·	?	?
CCN(CC)CCNC(=O)c1ccc2c(=O)n3nc(Nc4ccccc4OC)sc3nc2c1	·	–	?	–	15µM
COc1ccccc1Nc1nn2c(=O)c3ccc(C(=O)NCCCOC(C)C)cc3nc2s1	·	–	–	–	–
COc1ccccc1Nc1nn2c(=O)c3ccc(C(=O)NCc4cccs4)cc3nc2s1	·	–	·	?	7.3µM
Cc1ccc(NS(=O)(=O)c2cccc(F)c2)cc1C	·	·	–	·	–
COc1ccc(S(=O)(=O)N2CCOC2CNC(=O)C(=O)NCCc2c[nH]c3ccccc23)cc1 (stereo unspecified)	–	–	7.3µM	–	–
Cc1ccc(S(=O)(=O)N2CCOC2CNC(=O)C(=O)NCCCc2ccccc2)cc1 (stereo unspecified)	–	–	21µM	?	–
Nc1cccc(S(=O)(=O)N2CCN(S(=O)(=O)c3c(F)cccc3F)CC2)c1	·	·	–	·	–
CCOc1ccc(NC(=O)c2cnn3c2NC(C)=C(C(=O)Nc2ccc(Cl)cc2)C3c2ccc(OC)c(OC)c2)cc1 (stereo unspecified)	·	–	–	–	–
CCOC(=O)C1=C(c2ccccc2)NC(SCC(=O)Nc2cccc(C)c2)=C(C#N)C1c1ccco1 (stereo unspecified)	–	–	?	–	13µM
CCOC(=O)C1=C(c2ccccc2)NC(SC)=C(C#N)C1c1ccco1 (stereo unspecified)	–	–	?	–	–[1.84 µM]
CCOC(=O)C1=C(c2ccccc2)NC(SCC(=O)Nc2ccccc2C)=C(C#N)C1c1ccco1 (stereo unspecified)	–	–	?	–	·
CCOC(=O)C1=C(c2ccccc2)NC(SCC(=O)Nc2ccc(C)cc2)=C(C#N)C1c1ccco1 (stereo unspecified)	·	–	21µM	–	–[1.84 µM]
Cc1ccc(Cl)cc1NC(=O)C(=O)NCC(c1cccnc1)N1CCc2ccccc21 (stereo unspecified)	·	–	?	–	–
O=C(NC1CCOC1)c1cc(COc2cccc(C(F)(F)F)c2)on1 (stereo unspecified)	–	–	–	–	–
O=C(NCC1CCOCC1)c1cc(COc2cccc(C(F)(F)F)c2)on1	–	–	23µM	–	–
CCOC(=O)N1CCN(c2ccc(S(=O)(=O)N3CCC(C)CC3)cc2[N+](=O)[O-])CC1	–	–	18µM	·	–
O=C(Nc1ccc(Cl)cc1)c1cc(S(=O)(=O)N2CCOCC2)cs1	–	–	4.6µM	–	?
COc1ccc(NC(=O)c2cc(S(=O)(=O)Nc3ccc(OC)cc3)cs2)cc1	–	–	?	–	–
CC(C)Oc1ccc(CNS(=O)(=O)c2csc(C(N)=O)c2)cc1	–	–	15µM	–	–
O=C(Nc1ccc(F)cc1)c1cc(S(=O)(=O)Nc2ccc(F)cc2)cs1	–	–	18µM	–	?
Cc1ccc(NC(=O)c2cc(S(=O)(=O)N3CCCCC3)cs2)cc1	–	–	8.2µM	–	–
CC1CCc2cc(F)cc3c2N1C(=O)C(C(=O)Nc1cnccn1)C3=O (stereo unspecified)	·	·	–	·	–
O=c1[nH]cc(CCc2ccccc2)c2ncncc12	·	·	–	·	–
O=C1c2ccccc2C(=O)N1c1cccc(O)c1	·	·	–	·	–
Cc1ccc(NS(=O)(=O)c2csc(C(N)=O)c2)cc1C	–	–	16µM	–	–
Cc1cc(C)cc(NS(=O)(=O)c2csc(C(N)=O)c2)c1	–	–	?	–	–

Screening results: PubChem, National Center for Advancing Translational Sciences (NCATS)
